Laboratory results from BindingDB's records for doi:10.1021/jm070849r (Pfizer, 2008).

Molecular target: T1, 3-hydroxy-3-methylglutaryl-coenzyme A reductase (Rattus norvegicus, UniProt P51639)
T1 sequence (P51639 whole entry): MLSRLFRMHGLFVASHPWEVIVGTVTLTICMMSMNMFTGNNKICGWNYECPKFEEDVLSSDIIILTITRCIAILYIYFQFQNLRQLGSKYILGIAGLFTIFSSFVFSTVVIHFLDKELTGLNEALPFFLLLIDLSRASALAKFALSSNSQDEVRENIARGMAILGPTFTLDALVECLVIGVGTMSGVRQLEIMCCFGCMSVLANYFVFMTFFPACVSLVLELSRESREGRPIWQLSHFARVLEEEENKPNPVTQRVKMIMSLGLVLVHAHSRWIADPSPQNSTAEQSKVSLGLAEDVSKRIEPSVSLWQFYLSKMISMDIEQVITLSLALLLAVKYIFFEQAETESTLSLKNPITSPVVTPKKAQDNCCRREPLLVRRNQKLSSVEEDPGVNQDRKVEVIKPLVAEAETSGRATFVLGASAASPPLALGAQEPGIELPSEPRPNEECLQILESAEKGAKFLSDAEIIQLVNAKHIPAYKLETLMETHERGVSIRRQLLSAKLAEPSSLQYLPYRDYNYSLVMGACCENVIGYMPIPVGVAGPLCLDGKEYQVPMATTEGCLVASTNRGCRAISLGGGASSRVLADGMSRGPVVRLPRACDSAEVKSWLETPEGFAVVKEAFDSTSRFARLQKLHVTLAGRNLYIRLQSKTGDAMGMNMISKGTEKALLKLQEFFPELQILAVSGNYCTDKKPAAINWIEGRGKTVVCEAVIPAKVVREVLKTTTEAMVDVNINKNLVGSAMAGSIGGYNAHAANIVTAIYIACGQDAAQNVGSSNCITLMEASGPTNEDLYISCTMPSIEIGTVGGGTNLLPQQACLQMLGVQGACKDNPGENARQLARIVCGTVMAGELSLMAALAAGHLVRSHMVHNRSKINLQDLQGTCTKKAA
Test: HMG-CoA Reductase Enzyme Assay and Inhibition of Cellular Cholesterol Synthesis Assay
Conditions: pH 7.2; 37 °C
Protocol: Enzyme Assay for HMG-CoA reductase was based on the conversion of isotopically labeled HMG-CoA to mevalonic acid using rat liver microsomes as enzyme source. The product, [14C]-mevalonic acid was lactonized and separated from excess substrate via an anion ion exchange resin column, and radioactivity was counted on a scintillation counter. The IC50 values were calculated with GraphPad software (Prism). The cellular assay EC50/IC50 values were obtained from inhibition of cholesterol synthesis in rat hepatocyte.

Compound	IC50
CC(C)c1c(C(=O)N(C)[C@H](C)c2ccccc2)nn(-c2ccc(F)cc2)c1CC[C@@H](O)C[C@@H](O)CC(=O)O [sodium (3R,5R)-7-[1-(4-fluorophenyl)-3-{methyl[(1R)-1-phenylethyl]carbamoyl}-4-(propan-2-yl)-1H-pyrazol-5-yl]-3,5-dihydroxyheptanoate]	0.3 nM
CC(C)c1c(C(=O)N(C)[C@@H](C)c2ccccc2)nn(-c2ccc(F)cc2)c1CC[C@@H](O)C[C@@H](O)CC(=O)O [sodium (3R,5R)-7-[1-(4-fluorophenyl)-3-{methyl[(1S)-1-phenylethyl]carbamoyl}-4-(propan-2-yl)-1H-pyrazol-5-yl]-3,5-dihydroxyheptanoate]	3.5 nM
